# Measured values taken from PubChem BioAssay AID588358 (NMMLSC, 2011).
# Chains of the proteins cited; added tags and fusions are not shown. Lines headed by an entry give the natural chain unless they say otherwise; changes in a name come on top.
# UniProt P32926: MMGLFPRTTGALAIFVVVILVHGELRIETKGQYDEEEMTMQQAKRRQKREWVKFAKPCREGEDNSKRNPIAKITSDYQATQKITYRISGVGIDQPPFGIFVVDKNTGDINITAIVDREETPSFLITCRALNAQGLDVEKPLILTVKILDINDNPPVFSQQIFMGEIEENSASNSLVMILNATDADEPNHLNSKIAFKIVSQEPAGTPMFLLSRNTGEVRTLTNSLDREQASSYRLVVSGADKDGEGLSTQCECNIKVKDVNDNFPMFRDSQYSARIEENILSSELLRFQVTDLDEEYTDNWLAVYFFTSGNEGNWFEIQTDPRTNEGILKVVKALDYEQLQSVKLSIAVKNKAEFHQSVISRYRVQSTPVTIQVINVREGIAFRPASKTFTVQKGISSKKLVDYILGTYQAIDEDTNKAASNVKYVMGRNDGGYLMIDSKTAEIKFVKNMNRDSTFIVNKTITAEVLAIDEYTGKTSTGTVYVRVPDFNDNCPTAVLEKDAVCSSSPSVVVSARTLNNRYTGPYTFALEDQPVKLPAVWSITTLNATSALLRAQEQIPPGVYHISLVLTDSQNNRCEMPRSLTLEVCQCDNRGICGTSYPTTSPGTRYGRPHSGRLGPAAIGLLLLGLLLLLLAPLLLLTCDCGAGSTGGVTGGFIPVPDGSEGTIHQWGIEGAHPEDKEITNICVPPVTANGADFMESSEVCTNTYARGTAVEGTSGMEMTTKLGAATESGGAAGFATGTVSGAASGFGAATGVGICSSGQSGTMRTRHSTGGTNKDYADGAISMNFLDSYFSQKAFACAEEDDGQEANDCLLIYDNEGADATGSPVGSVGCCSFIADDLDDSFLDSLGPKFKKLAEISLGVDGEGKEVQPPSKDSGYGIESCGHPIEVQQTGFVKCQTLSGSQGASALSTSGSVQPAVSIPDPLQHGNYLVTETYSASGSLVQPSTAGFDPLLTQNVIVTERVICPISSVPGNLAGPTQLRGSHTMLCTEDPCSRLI
# The entries are a selection whose mix differs from that of the whole data set. Activity calls are given as the source filed them.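 Rule for the calls: active = binding more than 3 SD below its plate's average and above zero; inconclusive = below that plate limit but binding exactly zero; inactive = the rest.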
# Biological target: Desmoglein-3 (Homo sapiens) (UniProt P32926)
# Experiment: inhibitors of pemphigus antibody binding to DSG3, primary screen, biochemical, bead-based, flow cytometry, scFv-GFP (AID 588358);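 note: hits lower antibody fragment binding to DSG3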
# Conditions: DSG3-coupled beads, scFv-anti-DSG3-GFP binding, at 10 µM, active compounds read low
row,SMILES,binding (percent of control)
1,CCCOP(=S)(Nc1nc(N)cc(=O)[nH]1)OCCC,inactive: 93.8%
2,Cc1ccc(NCCc2c([N+](=O)[O-])cc([N+](=O)[O-])cc2[N+](=O)[O-])cc1,inactive: 97.6%
3,Nc1cccc2c([As](=O)(O)O)cccc12,inactive: 96.4%
4,COc1cc(C2NCCC3(OCCO3)C2(C)C)cc(OC)c1OC (centres undefined),inactive: 103%
5,CCOP(=O)(Nc1cccc2ccccc12)OCC,inactive: 101%
6,O=[As](O)(O)c1cccnc1,inactive: 99.5%
7,COc1cc(C(=O)NCC2(N3CCOCC3)CCCCC2)cc(Cl)c1OC(C)C,inactive: 100%
8,CS(=O)(=O)c1ccc(Cl)c(NC(=O)COC(=O)C(O)(c2ccccc2)c2ccccc2)c1,inactive: 104%
9,O=C(OC1CN2CCC1CC2)c1ccc(Cl)cc1 (centres undefined),inactive: 112%
10,Cc1cccc(OCC(=O)OC2CN3CCC2CC3)c1 (centres undefined),inactive: 103%
11,O=[As](O)(c1cccc(O)c1)c1cccc(O)c1,inactive: 103%
12,NC(=O)Nc1ccc([As](=O)(O)O)cc1,inactive: 104%
13,O=[N+]([O-])c1ccc2c(c1)nnn2O,inactive: 98.3%
14,CN(C)C(=O)c1cc([N+](=O)[O-])cc2c1-c1c(cc([N+](=O)[O-])cc1[N+](=O)[O-])C2=O,inactive: 101%
15,CN(C(=O)Cc1ccc(Cl)c(Cl)c1)[C@H]1CC[C@@]2(CCCO2)C[C@@H]1N1CCCC1,inactive: 103%
16,N#CCCN(C(=O)COC(=O)C(O)(c1ccccc1)c1ccccc1)c1ccc(F)cc1,inactive: 97.8%
17,CCOP1(=S)c2c(C)nn(CCC#N)c2N=C(c2ccc(F)cc2)N1C (centres undefined),inactive: 91.5%
18,CS(=O)(=O)c1cc([N+](=O)[O-])c2no[n+]([O-])c2c1,inactive: 90.6%
19,CCOP1(=S)c2c(C)nn(CCC#N)c2N=C(c2ccccc2F)N1C (centres undefined),inactive: 94.8%
20,O=P(Nc1nccs1)(Oc1ccccc1)Oc1ccccc1,inactive: 111%
21,O=P(Nc1nccs1)(c1ccccc1)c1nc2ccccc2s1 (centres undefined),inactive: 97%
22,Nc1ccccc1[As](=O)(O)c1ccccc1,inactive: 96.1%
23,O=C(O)COc1ccc([As](=O)(O)O)cc1[N+](=O)[O-],inactive: 112%
24,O=P1(Nc2ncccn2)COc2ccccc2OC1,inactive: 105%
25,Cc1ccc(OCC(=O)OC2CN3CCC2CC3)cc1 (centres undefined),inactive: 110%
26,O=[As](O)(c1cccs1)c1cccs1,inactive: 87.6%

row,SMILES,binding (percent of control)
1,O=P1(Nc2ccc(Br)cn2)COc2ccccc2OC1,inactive: 100%
2,NS(=O)(=O)c1cccc(NC(=O)COC(=O)C(O)(c2ccccc2)c2ccccc2)c1,inactive: 106%
3,Nc1cccc([As](=O)(O)c2ccccc2)c1,inactive: 101%
4,Cc1nn(-c2ccccc2)c2c1P(=O)(N1CCOCC1)N(C)C(c1ccccc1)=N2 (centres undefined),inactive: 102%
5,CC1CCC(C(C)C)C(OP(=O)(Nc2ccccn2)c2ccccc2)C1 (centres undefined),inactive: 102%
6,Cc1ccc(C(=O)OC2CN3CCC2CC3)cc1 (centres undefined),inactive: 112%
7,CCCC1OP(=O)(Nc2ccccc2)OCC1CC (centres undefined),inactive: 94.7%
8,CN(C)C1(CNC(=O)c2ccc(S(C)(=O)=O)cc2)CCCCC1,inactive: 106%
9,COc1ccccc1CNC(=O)COC(=O)C(O)(c1ccccc1)c1ccccc1,inactive: 105%
10,CC1(CBr)Cn2c(nc3ccccc3c2=O)S1 (centres undefined),inactive: 98.9%
11,CC(C)/C=N\N=C(\N)N[N+](=O)[O-],inactive: 102%
12,CCOP(=O)(Nc1ccc(C)cn1)OCC,inactive: 97.3%
13,O=P1(Nc2ccccn2)COc2ccccc2OC1,inactive: 97.5%
14,CCC1=CC2Cc3nc4ccc(Cl)cc4c(N)c3C(C1)C2 (centres undefined),inactive: 153%
15,CCOP(=O)(NC(=NC(C)c1ccccc1)NC(C)c1ccccc1)OCC (centres undefined),inactive: 103%
16,O=P1(N(CCCl)CCCl)NCCC(C(F)(F)F)O1 (centres undefined),inactive: 105%
17,Clc1n[nH]nc1-c1nn[nH][15n]1,inactive: 96%
18,CC(C)(C)C(=O)NC(Sc1ncccn1)C(Cl)(Cl)Cl (centres undefined),inactive: 102%
19,CCOC(=O)c1ccc(NC(=O)C(C)(CCl)SC)cc1 (centres undefined),inactive: 102%
20,O=C(OC1CN2CCC1CC2)c1cccc([N+](=O)[O-])c1 (centres undefined),inactive: 89.8%
21,CSc1ccc(Nc2c([N+](=O)[O-])cc([N+](=O)[O-])cc2[N+](=O)[O-])cc1,inactive: 103%
22,COP1(=S)c2c(C)nn(CCC#N)c2N=C(c2ccc(F)cc2)N1C (centres undefined),inactive: 100%
23,O=C(COc1ccccc1)OC1CN2CCC1CC2 (centres undefined),inactive: 105%
24,O=C(Nc1ccncc1[N+](=O)[O-])c1ccc([N+](=O)[O-])cc1[N+](=O)[O-],inactive: 103%
25,O=C(O)C(=O)c1ccc(N(CCCl)CCCl)cc1,inactive: 106%
26,O=[N+]([O-])c1ccc(Nc2ccc(Oc3ccc([N+](=O)[O-])cc3[N+](=O)[O-])cc2)c([N+](=O)[O-])c1,inactive: 91.9%

row,SMILES,binding (percent of control)
1,O=P(Nc1ccccn1)(c1cccc2ccccc12)c1cccc2ccccc12,inactive: 101%
2,Cc1cc(SC(NC=O)C(Cl)(Cl)Cl)ncn1 (centres undefined),inactive: 86.7%
3,CC1CCNP(=O)(N(CCCl)CCCl)O1 (centres undefined),inactive: 94.9%
4,CCOC(=O)Nc1ccc([As](=O)(O)O)c(O)c1,inactive: 88.6%
5,O=C(O)C(O)c1ccc(N(CCCl)CCCl)cc1 (centres undefined),inactive: 110%
6,CCCCOc1ccc(C(=O)NCC2(N3CCCCC3)CCCCC2)cc1OC,inactive: 107%
7,Cc1cc(SC(NC(=O)c2ccccc2)C(Cl)(Cl)Cl)nc(C(C)C)n1 (centres undefined),inactive: 85.2%
8,COP(=O)(OC)N1CC1c1ccccc1 (centres undefined),inactive: 107%
9,COC(=O)C1(C)COP(=O)(N2CCCCCC2)OC1 (centres undefined),inactive: 90.6%
10,CC(C)c1ccc(OP(=O)(Nc2ccccn2)Oc2ccccc2F)cc1 (centres undefined),inactive: 110%
11,ClCCSc1nnc(-c2cccnc2)o1,inactive: 93.2%
12,CC(C)NC(=O)NP(=O)(Oc1ccccc1)Oc1ccccc1,inactive: 98.9%
13,CCN(CC)C(=S)SC(NC=O)C(Cl)(Cl)Cl (centres undefined),inactive: 103%
14,O=C(OC1CN2CCC1CC2)c1cccc2[nH]cnc12 (centres undefined),inactive: 90.3%
15,O=[N+]([O-])c1cc([N+](=O)[O-])c(-c2ccn[nH]2)s1,inactive: 107%
16,O=[As](O)(c1ccc(O)cc1)c1ccccc1O,inactive: 96.6%
17,C[As](=O)(O)c1cccc(C(=O)O)c1,inactive: 94.8%
18,O=[N+]([O-])c1ccc(-c2cc([N+](=O)[O-])c(O)c([N+](=O)[O-])c2)cc1,inactive: 95.8%
19,COc1cc(C(=O)NCC2(N3CCOCC3)CCCCC2)ccc1OCC(C)C,inactive: 96.8%
20,Cc1ccc2nc3c(c(C)c2c1)CC(C(Cl)Cl)S3 (centres undefined),inactive: 87.3%
21,Cc1ccc(OP(=O)(Nc2ccc([N+](=O)[O-])cn2)Oc2ccc(C)cc2)cc1,inactive: 94.5%
22,COc1ccc(N/C(=N/P(=O)(N2CCOCC2)N2CCOCC2)N2CCOCC2)cc1,inactive: 102%
23,O=[N+]([O-])c1cc(Oc2ccc([N+](=O)[O-])cc2C(F)(F)F)cc([N+](=O)[O-])c1,inactive: 88%
24,O=C(OC1CN2CCC1CC2)C12CC3CC(CC(C3)C1)C2 (centres undefined),inactive: 96.9%
25,Cc1cc(=O)[nH]c(N[N+](=O)[O-])n1,inactive: 96.3%
26,Cc1c2c(nc3ccccc13)SC(C(Cl)Cl)C2 (centres undefined),inactive: 108%

row,SMILES,binding (percent of control)
1,COc1ccc2nc(NP(=O)(c3ccccc3)c3ccccc3)sc2c1,inactive: 99.1%
2,COc1cc(I)ccc1[As](=O)(O)O,inactive: 94.8%
3,O=P1(N(CCCl)CCCl)Nc2ccccc2N1,inactive: 117%
4,CC(C)CC(=O)NC(Sc1ccc(Cl)cc1)C(Cl)(Cl)Cl (centres undefined),inactive: 106%
5,Oc1ccccc1CNc1ccccn1,inactive: 96.5%
6,O=C(NC(Sc1ccncn1)C(Cl)(Cl)Cl)c1ccccc1 (centres undefined),inactive: 115%
7,NC(=O)c1cc([N+](=O)[O-])cc([N+](=O)[O-])c1N,inactive: 98.8%
8,CN(C(=O)Cc1ccc(Cl)c(Cl)c1)[C@H]1CCCC[C@H]1N1CCCC1,inactive: 101%
9,Cc1ccc(N/C(=N/P(=O)(N2CCOCC2)N2CCOCC2)N2CCOCC2)cc1,inactive: 111%
10,COc1ccccc1OP(=O)(Nc1ccc(C)cn1)Oc1ccccc1OC,inactive: 103%
11,Cc1ccc(OP(=O)(Nc2nccs2)Oc2ccc(C)cc2)cc1,inactive: 103%
12,CN1CCCC(OC(=O)C(c2ccccc2)c2ccccc2)C1 (centres undefined),inactive: 114%
13,Clc1ccc(Cl)c(NC2=NCC(CBr)S2)c1 (centres undefined),inactive: 99.1%
14,CCN(N=Nc1nonc1N)c1nonc1N,inactive: 99%
15,Nc1cccc2ccc([As](=O)(O)O)cc12,inactive: 103%
16,CC(=O)Nc1ccc([As](=O)(O)O)cc1,inactive: 93%
17,O=C(O)c1ccccc1[As](=O)(O)O,inactive: 99.9%
18,CCCC1OP(N)(=O)OCC1CC (centres undefined),inactive: 95.5%
19,CN(C)P(=O)(N(C)C)n1c(Nc2ccccc2)nnc1-c1ccccc1,inactive: 98.5%
20,Cc1cc(SC(NC(=O)c2ccc(F)cc2)C(Cl)(Cl)Cl)ncn1 (centres undefined),inactive: 107%
21,CCOP(=O)(Nc1ccccc1)OCC,inactive: 108%
22,CN(C(=O)Cc1ccc(Cl)c(Cl)c1)[C@H]1CCCC[C@@H]1N1CCCC1,inactive: 98.7%
23,CC(C)(C)C(=O)NC(Sc1ccncn1)C(Cl)(Cl)Cl (centres undefined),inactive: 101%
24,O=[N+]([O-])c1ncn(CCn2ncnc2[N+](=O)[O-])n1,inactive: 99.6%
25,COC(=O)C1(C)COP(=O)(Nc2ccccc2)OC1 (centres undefined),inactive: 91.3%
26,O=C(O)CNc1ccc([As](=O)(O)O)cc1,inactive: 89.2%
